From PubChem BioAssay (Tox21) come the findings set out here.

Protein sequences, listed by entry. Tags and fused reporters are not part of them. Lines headed by an entry give the natural chain unless they say otherwise; changes in a name come on top.
UniProt P06401: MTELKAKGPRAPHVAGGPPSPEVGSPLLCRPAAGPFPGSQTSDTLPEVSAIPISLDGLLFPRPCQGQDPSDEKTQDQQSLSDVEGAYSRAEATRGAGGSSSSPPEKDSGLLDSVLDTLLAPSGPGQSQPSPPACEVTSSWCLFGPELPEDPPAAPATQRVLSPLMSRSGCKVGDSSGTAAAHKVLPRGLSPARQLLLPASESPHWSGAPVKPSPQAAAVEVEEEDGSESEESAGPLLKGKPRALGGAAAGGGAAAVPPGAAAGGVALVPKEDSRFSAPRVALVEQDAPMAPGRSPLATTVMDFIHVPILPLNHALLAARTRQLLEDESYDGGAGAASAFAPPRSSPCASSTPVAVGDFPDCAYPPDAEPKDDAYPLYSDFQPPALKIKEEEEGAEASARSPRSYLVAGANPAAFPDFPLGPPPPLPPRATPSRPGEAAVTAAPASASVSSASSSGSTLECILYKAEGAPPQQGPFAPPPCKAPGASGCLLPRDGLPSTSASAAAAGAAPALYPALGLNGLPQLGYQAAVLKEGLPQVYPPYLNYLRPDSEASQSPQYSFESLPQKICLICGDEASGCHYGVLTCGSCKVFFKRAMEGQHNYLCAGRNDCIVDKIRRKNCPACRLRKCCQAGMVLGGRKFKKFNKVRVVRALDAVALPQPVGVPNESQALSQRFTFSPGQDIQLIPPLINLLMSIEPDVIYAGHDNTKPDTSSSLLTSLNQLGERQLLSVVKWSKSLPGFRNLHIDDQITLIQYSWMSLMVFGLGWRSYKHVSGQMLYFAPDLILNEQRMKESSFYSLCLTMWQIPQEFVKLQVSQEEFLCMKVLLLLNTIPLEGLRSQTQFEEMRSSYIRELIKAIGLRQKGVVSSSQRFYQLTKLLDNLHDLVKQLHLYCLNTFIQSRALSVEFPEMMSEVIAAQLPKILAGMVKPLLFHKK
UniProt P34981: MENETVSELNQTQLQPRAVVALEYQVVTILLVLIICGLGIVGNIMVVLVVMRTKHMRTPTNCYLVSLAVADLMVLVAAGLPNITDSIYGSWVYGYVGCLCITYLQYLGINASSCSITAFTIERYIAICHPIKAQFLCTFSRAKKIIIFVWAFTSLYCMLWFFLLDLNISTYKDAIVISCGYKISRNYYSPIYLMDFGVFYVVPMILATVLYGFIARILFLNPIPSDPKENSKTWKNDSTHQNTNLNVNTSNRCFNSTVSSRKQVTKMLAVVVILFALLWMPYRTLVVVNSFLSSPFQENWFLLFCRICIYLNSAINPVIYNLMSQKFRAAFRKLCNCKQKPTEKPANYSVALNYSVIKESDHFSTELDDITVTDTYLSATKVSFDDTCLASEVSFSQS
UniProt O75469: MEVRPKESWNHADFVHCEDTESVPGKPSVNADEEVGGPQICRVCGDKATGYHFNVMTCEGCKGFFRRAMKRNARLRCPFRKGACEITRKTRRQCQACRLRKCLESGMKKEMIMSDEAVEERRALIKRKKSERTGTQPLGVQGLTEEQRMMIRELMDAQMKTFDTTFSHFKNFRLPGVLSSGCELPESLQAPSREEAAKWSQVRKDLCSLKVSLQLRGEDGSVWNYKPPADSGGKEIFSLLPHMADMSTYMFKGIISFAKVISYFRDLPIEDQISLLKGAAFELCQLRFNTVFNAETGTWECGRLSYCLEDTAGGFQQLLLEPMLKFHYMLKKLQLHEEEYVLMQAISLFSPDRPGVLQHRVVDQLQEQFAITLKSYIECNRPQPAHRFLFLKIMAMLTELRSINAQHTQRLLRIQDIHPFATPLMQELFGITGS
UniProt P22303: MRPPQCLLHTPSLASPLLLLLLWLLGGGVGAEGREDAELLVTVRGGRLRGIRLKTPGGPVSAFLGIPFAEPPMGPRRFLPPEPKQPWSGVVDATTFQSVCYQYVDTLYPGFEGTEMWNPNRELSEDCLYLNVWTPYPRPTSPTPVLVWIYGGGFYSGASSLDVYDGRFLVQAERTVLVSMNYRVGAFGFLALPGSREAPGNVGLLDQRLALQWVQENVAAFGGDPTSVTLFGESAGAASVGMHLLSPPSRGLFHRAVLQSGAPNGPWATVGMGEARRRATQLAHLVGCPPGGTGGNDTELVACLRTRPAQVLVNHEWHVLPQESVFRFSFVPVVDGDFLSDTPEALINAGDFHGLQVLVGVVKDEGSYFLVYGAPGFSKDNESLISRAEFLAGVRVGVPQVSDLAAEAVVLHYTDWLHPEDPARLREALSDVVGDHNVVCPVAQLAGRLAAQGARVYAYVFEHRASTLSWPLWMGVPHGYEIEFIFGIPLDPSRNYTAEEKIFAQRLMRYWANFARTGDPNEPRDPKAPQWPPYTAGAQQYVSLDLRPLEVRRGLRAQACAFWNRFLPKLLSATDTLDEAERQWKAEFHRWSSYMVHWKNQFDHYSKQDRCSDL
UniProt P33261, whole entry, looked up: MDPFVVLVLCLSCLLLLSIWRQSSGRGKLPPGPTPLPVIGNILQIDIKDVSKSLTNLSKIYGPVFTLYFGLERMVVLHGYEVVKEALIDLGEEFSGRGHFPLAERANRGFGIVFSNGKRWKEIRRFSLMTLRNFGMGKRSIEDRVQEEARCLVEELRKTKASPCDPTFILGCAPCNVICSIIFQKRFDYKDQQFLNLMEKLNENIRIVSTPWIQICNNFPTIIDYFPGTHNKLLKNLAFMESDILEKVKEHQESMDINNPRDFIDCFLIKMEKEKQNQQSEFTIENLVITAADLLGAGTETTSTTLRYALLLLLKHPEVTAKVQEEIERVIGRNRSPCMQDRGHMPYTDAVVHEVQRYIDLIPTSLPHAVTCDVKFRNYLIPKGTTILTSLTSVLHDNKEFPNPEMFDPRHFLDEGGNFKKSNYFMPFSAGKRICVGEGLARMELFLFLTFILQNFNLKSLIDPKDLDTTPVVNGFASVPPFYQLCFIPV
UniProt P11712, whole entry, looked up: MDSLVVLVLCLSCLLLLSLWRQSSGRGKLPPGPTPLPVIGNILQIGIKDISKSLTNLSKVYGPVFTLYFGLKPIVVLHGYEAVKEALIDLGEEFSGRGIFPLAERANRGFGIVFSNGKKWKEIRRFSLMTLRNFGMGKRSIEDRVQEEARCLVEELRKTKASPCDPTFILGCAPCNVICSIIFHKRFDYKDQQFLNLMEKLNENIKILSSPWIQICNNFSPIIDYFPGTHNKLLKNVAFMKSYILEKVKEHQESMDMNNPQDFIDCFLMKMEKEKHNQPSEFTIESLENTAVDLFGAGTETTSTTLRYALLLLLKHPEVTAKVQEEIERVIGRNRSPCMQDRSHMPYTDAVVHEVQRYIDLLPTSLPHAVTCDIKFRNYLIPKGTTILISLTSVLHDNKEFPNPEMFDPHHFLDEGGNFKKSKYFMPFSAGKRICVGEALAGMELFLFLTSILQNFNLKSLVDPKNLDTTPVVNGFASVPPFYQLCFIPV
UniProt P05177, whole entry, looked up: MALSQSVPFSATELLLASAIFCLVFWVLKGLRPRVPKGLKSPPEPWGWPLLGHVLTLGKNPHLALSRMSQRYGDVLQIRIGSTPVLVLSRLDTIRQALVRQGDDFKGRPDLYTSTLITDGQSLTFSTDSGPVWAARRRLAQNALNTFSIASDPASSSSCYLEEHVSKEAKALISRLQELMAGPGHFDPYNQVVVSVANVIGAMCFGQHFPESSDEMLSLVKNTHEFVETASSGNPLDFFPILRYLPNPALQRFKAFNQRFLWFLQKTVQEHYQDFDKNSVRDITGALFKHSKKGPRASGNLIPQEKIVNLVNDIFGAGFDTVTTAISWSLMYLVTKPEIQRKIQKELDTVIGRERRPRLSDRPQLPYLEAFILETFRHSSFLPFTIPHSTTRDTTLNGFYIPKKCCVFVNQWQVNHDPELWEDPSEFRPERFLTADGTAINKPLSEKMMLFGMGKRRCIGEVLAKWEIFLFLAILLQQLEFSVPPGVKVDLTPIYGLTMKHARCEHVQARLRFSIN
UniProt Q12809: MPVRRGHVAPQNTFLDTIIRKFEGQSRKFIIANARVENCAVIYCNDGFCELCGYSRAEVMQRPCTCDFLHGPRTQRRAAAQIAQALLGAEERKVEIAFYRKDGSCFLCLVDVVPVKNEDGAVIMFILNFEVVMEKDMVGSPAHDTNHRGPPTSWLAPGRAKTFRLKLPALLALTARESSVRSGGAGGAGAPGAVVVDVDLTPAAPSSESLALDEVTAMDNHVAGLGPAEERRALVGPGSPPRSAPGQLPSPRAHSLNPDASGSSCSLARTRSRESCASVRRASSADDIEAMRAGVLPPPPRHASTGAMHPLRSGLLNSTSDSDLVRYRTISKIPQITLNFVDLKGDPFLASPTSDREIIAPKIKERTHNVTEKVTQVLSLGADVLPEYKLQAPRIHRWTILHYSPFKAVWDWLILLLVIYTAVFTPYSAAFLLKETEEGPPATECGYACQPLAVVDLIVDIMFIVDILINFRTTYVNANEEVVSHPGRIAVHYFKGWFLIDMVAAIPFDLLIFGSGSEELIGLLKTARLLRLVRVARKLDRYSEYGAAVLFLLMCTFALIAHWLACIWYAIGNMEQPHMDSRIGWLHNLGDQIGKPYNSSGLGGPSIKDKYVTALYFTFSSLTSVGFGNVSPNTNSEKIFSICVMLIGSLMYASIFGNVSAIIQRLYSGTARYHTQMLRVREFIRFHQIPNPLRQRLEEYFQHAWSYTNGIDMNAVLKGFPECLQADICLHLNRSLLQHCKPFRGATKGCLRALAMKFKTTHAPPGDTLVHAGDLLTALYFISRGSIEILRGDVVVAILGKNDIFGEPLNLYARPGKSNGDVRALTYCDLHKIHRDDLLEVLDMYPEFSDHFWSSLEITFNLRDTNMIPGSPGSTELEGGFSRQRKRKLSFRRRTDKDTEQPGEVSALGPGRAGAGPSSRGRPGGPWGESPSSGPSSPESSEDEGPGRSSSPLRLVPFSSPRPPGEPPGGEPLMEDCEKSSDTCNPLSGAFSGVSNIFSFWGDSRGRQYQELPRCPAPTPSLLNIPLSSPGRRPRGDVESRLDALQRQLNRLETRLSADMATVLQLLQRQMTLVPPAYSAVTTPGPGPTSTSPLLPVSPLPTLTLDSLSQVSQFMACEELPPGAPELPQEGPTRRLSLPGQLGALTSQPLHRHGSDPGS

This is a selection; strong and weak results do not stand in their true shares. Inconclusive results are not listed. The source made the active and inactive calls. Unless noted, calls follow the shape of the dose curve; as a rule, active = well fitted curve in the direction sought with a large enough effect in the repeat runs; inconclusive = weak or mixed curves; inactive = no such curve, though single readings can be large; an effect the other way counts as inactive or inconclusive.

Test [1] is described as follows: qHTS assay to identify small molecule agonists of the estrogen receptor alpha (ER-alpha) signaling pathway in the presence of an antagonist - cell viability counter screen (AID 1259386).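 Also: cells exposed to compounds for 22 h at 37 °C before the viability read; nearly all actives have a fitted effect of over 30% in size.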 The method in brief:
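VM7Luc4E2 cells (endogenous full-length ER-alpha, 4×ERE-luciferase) were held 5 days in phenol red-free medium with 10% charcoal-stripped FBS, plated, then given 10.0nM ICI-182,780 and compounds at 15 concentrations for 22hr at 37C; viability read by CellTiter-Fluor fluorescence.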
(In qHTS, concentration-response curves come from the screen itself.)

The target in test [2] is Progesterone receptor (Homo sapiens) (UniProt P06401). Kind of test: qHTS assay to identify small molecule agonists of the progesterone receptor (PR) signaling pathway (AID 1346784; calls by dose curve; also: nearly all actives have a fitted effect of over 30% in size). An outline of the steps: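 Compounds were tested for PR agonism in HEK 293T cells bearing a beta-lactamase gene under UAS control. Treatment lasted 16 hr at 37C; signal came from fluorescence of a FRET substrate.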

Test [3] has the same target. Kind of test: qHTS assay to identify small molecule antagonists of the progesterone receptor (PR) signaling pathway (AID 1346795; active = well fitted inhibition curve with a large enough effect in the signal ratio in the repeat runs, not every such curve was filed as active; the % refers to the signal ratio). The method in brief:
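In HEK293T cells bearing the PR-UAS-bla reporter, compound effects on promegestone-driven (1 nM) beta-lactamase expression are assessed after 16 hr using a fluorescent FRET substrate incubated 2 hr at room temperature.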

Test [4] can be described thus: qHTS assay to identify small molecule antagonists of the progesterone receptor (PR) signaling pathway - cell viability counter screen (AID 1346798). Also: nearly all actives have a fitted effect of over 50% in size. The method in brief: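 Following a 4 hr attachment, PR-UAS-bla HEK293T cells in charcoal-stripped FBS medium were exposed to compounds with R5020 for 16 hr; CellTiter-Glo was added and luminescence read after 30 min at room temperature.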

Test [5] in a line: qHTS assay to identify small molecule agonists of the progesterone receptor (PR) signaling pathway - cell viability counter screen (AID 1346799; calls by dose curve; also: nearly all actives have a fitted effect of over 45% in size). An outline of the steps:
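Here, 3,000 PR-UAS-bla HEK293T cells per well were treated with compounds for 16 hr after a 6 hr preincubation at 37C and 5% CO2; cell viability is the CellTiter-Glo luminescence signal.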

Test [6] in a line: qHTS assay to identify small molecule agonists of the TGF-beta/Smad signaling pathway - cell viability counter screen (AID 1346829). Also: top concentration of the series differs between compounds; nearly all actives have a fitted effect of over 45% in size. An outline of the steps: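 Compound-treated SBE-bla HEK 293T cells (5 hr, 37 C) were assessed for viability with CellTiter-Glo in parallel with the reporter read.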
Test [7] is described as follows: qHTS assay to identify small molecule agonists of the TGF-beta/Smad signaling pathway (AID 1346859; active = well fitted activation curve with a large enough effect in the signal ratio in the repeat runs, not every such curve was filed as active; the % refers to the signal ratio). To be noted: SBE-bla HEK293T, TGF-beta/Smad beta-lactamase reporter, 5 h; at 76.8 µM (top of the series) unless noted. An outline of the steps: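 Each well held 4,000 SBE-bla HEK 293T cells incubated overnight before compound addition; 5 hr later the cleavable FRET substrate went on for 2 hr at room temperature, and fluorescence was read at two emissions.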

Test [8] deals with Thyrotropin-releasing hormone receptor (Homo sapiens) (UniProt P34981). As to the kind of experiment: qHTS assay to identify small molecule antagonists of the thyrotropin-releasing hormone receptor (TRHR) signaling pathway (AID 1346877; active = well fitted inhibition curve with a large enough effect in the repeat runs, not every such curve was filed as active).
For test [9] the target is unchanged. Kind of test: qHTS assay to identify small molecule agonists of the thyrotropin-releasing hormone receptor (TRHR) signaling pathway (AID 1346891; calls by dose curve;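 also: HEK293 cells expressing TRHR with calcium dye readout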). To be noted: TRHR-HEK293 calcium fluorescence, agonist mode; at 57.6 µM (top of the series) unless noted.
Test [10] is described as follows: Human pregnane X receptor (PXR) small molecule agonists, qHTS cell viability counter screen (AID 1346977). Also: nearly all actives have a fitted effect of over 50% in size. An outline of the steps: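 Tox21 qHTS format; PXR-Luc HepG2, 2,000/well, charcoal-stripped FBS 5%. Cpd exposure 24hr. Read: CellTiter-Fluor fluorescence, multiplexed with luciferase.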
Test [11] is described as follows: Caspase-3/7 induction in CHO-K1 cells by small molecules, qHTS assay (AID 1346980). Also: nearly all actives have a fitted effect of over 15% in size. The note with it: CHO-K1 caspase-3/7 induction, Caspase-Glo luminescence, 17 h; at 92.4 µM (top of the series) unless noted. An outline of the steps: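 Wild-type cells were seeded at 1,500 per well and settled 5 hr at 37 C, 5% CO2, then exposed to DMSO-dissolved compounds for 17 hr. Caspase-Glo 3/7 reagent was added, and luminescence was read after 30min at room temperature.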

Test [12] is described as follows: Caspase-3/7 induction in HepG2 cells by small molecules, qHTS cell viability counter screen (AID 1346981). Also: nearly all actives have a fitted effect of over 30% in size. An outline of the steps:
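Wild-type HepG2 cells (2,000/well) were allowed to settle for 5 hr at 37 C, 5% CO2, then dosed with compounds in DMSO by pin transfer. After 16 hr at 37 C, CellTiter-Fluor was added and fluorescence read 1 hr later.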

In test [13] the target is Nuclear receptor subfamily 1 group I member 2 (Homo sapiens) (UniProt O75469). Kind of test: Human pregnane X receptor (PXR) small molecule agonists, qHTS assay (AID 1346982). Also: nearly all actives have a fitted effect of over 35% in size. An outline of the steps: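 PXR-Luc HepG2 cells (CYP3A4 promoter-driven luciferase) were seeded in medium with 5% charcoal-stripped FBS, left 5 hr at 37 C, then exposed to compounds in DMSO for 24 hr. Luminescence was read after ONE-Glo addition.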

Test [14] deals with Acetylcholinesterase (Homo sapiens) (UniProt P22303). As to the kind of experiment: Acetylcholinesterase (AChE) small molecule antagonists: colormetric cell-based qHTS assay (AID 1347395; calls by dose curve; also: nearly all actives have a fitted effect of over 30% in size). An outline of the steps:
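AChE inhibition read colorimetrically via DTNB–thiocholine in SH-SY5Y cells. Compound 30 min, substrate 90 min, both 37 C.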

Test [15] has the same target. As to the kind of experiment: Acetylcholinesterase (AChE) small molecule antagonists: fluorescence cell-based qHTS assay (AID 1347398; calls by dose curve; also: nearly all actives have a fitted effect of over 50% in size). The note with it: Potency: AChE activity. An outline of the steps:
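Human SH-SY5Y cells were plated overnight at 37 C, exposed to compound for 30 min at 37 C, 5% CO2, then given acetylthiocholine plus Thiolite Green for 40 min at room temperature; thiocholine fluorescence (Ex/Em 490/520 nm) reports endogenous AChE activity.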

Test [16] deals with Cytochrome P450 2C19 (Homo sapiens) (UniProt P33261). Kind of test: Cytochrome P450 Family 2 Subfamily C Member 19 (CYP2C19) small molecule antagonists: luciferase reporter qHTS assay (AID 1671197). Also: nearly all actives have a fitted effect of over 65% in size. Also: potency is read from the fitted curve at half-maximal effect. An outline of the steps:
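P450-Glo CYP2C19 screening system; proluciferin substrate; DMSO compound stocks; 10 min RT preincubation; NADPH regeneration, 1 h at 37C; luciferin detection reagent, 20 min RT; luminescence as RLU.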
On the technique in general: In a reporter assay the amount or activity of a reporter protein is the signal.

Test [17] addresses Cytochrome P450 2C9 (Homo sapiens) (UniProt P11712). As to the kind of experiment: Cytochrome P450 Family 2 Subfamily C Member 9 (CYP2C9) small molecule antagonists: luciferase reporter qHTS assay (AID 1671198). Also: nearly all actives have a fitted effect of over 50% in size. Also: potency is read from the fitted curve at half-maximal effect. The method in brief:
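CYP2C9 activity was measured with a P450-Glo proluciferin substrate. Enzyme–substrate mix was held with compound for 10 min at room temperature, then NADPH regeneration solution was added for 1 h at 37C. Luciferin product was read as luminescence.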

Test [18] has as its target Cytochrome P450 1A2 (Homo sapiens) (UniProt P05177). Kind of test: Cytochrome P450 Family 1 Subfamily A Member 2 (CYP1A2) small molecule antagonists: luciferase reporter qHTS assay (AID 1671199). Also: nearly all actives have a fitted effect of over 50% in size.
The target in test [19] is Voltage-gated inwardly rectifying potassium channel KCNH2 (Homo sapiens) (UniProt Q12809). As to the kind of experiment: Human Ether-a-go-go-Related Gene (hERG) channel small molecule antagonists: fluorescence cell-based qHTS assay (AID 1671200). An outline of the steps: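 Kinetic two-minute fluorescence traces, sampled at 1 s, were collected following thallium stimulus of U2OS cells (1000 per well) that had been cultured overnight at 37 C and loaded with FluxOR II.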
For orientation: hERG is a cardiac potassium channel; its block is linked to QT prolongation.

A short description of test [20]: Caspase-3/7 induction in CHO-K1 cells by small molecules, qHTS cell viability counter screen (AID 1346979). Also: nearly all actives have a fitted effect of over 35% in size. The method in brief: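 CellTiter-Fluor viability check, qHTS format: wild-type CHO-K1, 16hr compound treatment, 1hr reagent incubation, fluorescence read.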
% is scaled to controls: 0 for no effect and ±100 for the full control effect.

Consider `O=P(Cl)(Cl)c1ccccc1`, for which the Potency entry in test [1], in test [2], in [3], in test [4], in [5] and in [6] was “inactive” throughout. The Potency entry in [8], in test [10], in test [12], in test [13], in [14] and in test [15] was “inactive” in each case. The Potency entry in [16], in test [17], in test [18] and in test [19] was “inactive” in each case. The activation in test [7] is inactive: 1.39%; in test [9] it was inactive: -0.3%. Moreover, the caspase-3/7 activation in test [11] is inactive: 0.049%.

Take `CN(N=O)C(=N)N[N+](=O)[O-]`: the Potency result in test [1], in test [2], in test [3], in test [4], in test [5] and in test [6] was “inactive” each time. Further, the Potency entry in [8] and in test [19] was “inactive” throughout. Also, the activation in test [7] is inactive: -0.0437%; in test [9], inactive: 0.0103%. Besides, the caspase-3/7 activation in [11] was inactive: -1.53%.

For the compound `CC(C)CCCCCCCOP(OCCCCCCCC(C)C)Oc1ccccc1`, the Potency result in test [1], in test [2], in test [3], in test [4], in [5] and in test [6] was “inactive” each time. For the same compound, the Potency result in test [8], in test [10], in test [20], in test [14] and in test [19] was “inactive” throughout. In addition, the activation in test [7] is inactive: 2.17%; in test [9], inactive: 0.13%. Besides, the caspase-3/7 activation in test [11] is inactive: 0.946%. The values for the Potency in test [16] and in test [17] were active: 79.6 µM and active: 39.9 µM, respectively.

As to `CN(C(=O)Cc1ccccc1)[C@H]1CC[C@@]2(CCCO2)C[C@@H]1N1CCCC1`, the Potency result in test [2], in test [3], in test [4], in test [5], in test [6] and in [8] was “inactive” in each case. Further, the Potency entry in test [14], in [15], in test [16], in [17], in test [18] and in test [19] was “inactive” throughout. Moreover, the activation in [7] was inactive: -1.41% [at 35.3 µM]; in [9], inactive: -0.123% [at 26.5 µM]. In addition, the caspase-3/7 activation in test [11] was inactive: -0.0337% [at 42.5 µM].

Take `COP(=S)(Cl)OC`: the Potency entry in test [2], in test [3], in test [4], in test [5], in test [6] and in test [8] was “inactive” throughout. For the same compound, the Potency result in test [10], in test [20], in test [12], in test [13], in test [14] and in test [15] was “inactive” each time. Also, in test [19], the Potency result is “inactive”. Also, the figures for the activation in test [7] and in [9] were inactive: -2.2% and inactive: -0.0705%, respectively. In addition, in [11], the caspase-3/7 activation was inactive: -0.851%. For the same compound, the Potency in [16] was active: 28.5 µM; in [17] it was active: 32 µM.

On to `CCC(C)(OOC(C)(C)C)OOC(C)(C)C`, for which the activity change, negative = cytotoxicity in test [1] was inactive: 0.637% [at 19 µM]; in [4] it was inactive: -8.95% [at 18.9 µM]; in test [5], inactive: -6.54% [at 19 µM]; in test [6], inactive: -0.297% [at 15.8 µM]; in test [10], inactive: 1.63% [at 19 µM]; in test [20] it was inactive: 6.16% [at 19 µM]. For the same compound, the activity change, negative = cytotoxicity in test [12] was inactive: 2.28% [at 19 µM]. Further, the activation in test [2] was inactive: -0.244% [at 19 µM]; in [7] it was inactive: 4.22% [at 15.8 µM]; in test [9] it was inactive: 0.126% [at 11.8 µM]; in test [13], inactive: 4.75% [at 19 µM]. Moreover, the activity change, negative = inhibition is inactive: 8.17% [at 18.9 µM] in test [3]; inactive: -1.94% [at 23.8 µM] in test [15]; inactive: -7.88% [at 23.6 µM] in [16]; inactive: 4.4% [at 23.6 µM] in [17]; inactive: -12.1% [at 23.6 µM] in test [18]; inactive: 0.148% [at 15.8 µM] in test [19]. Besides, the activity, negative = inhibition in test [8] was inactive: -1.63% [at 10.5 µM]; in test [14], inactive: -0.0859% [at 23.6 µM]. Besides, the caspase-3/7 activation in test [11] was inactive: -1.34% [at 19 µM].

Turning to `CN(C(=O)Cc1cccc2occc12)[C@H]1CC[C@@]2(CCCO2)C[C@@H]1N1CCCC1`, the Potency entry in test [2], in [3], in test [4], in test [5], in test [6] and in test [8] was “inactive” throughout. In addition, the Potency entry in test [10], in [20], in [12], in test [13], in [14] and in test [15] was “inactive” in each case. The Potency entry in test [19] was “inactive”. The activation in test [7] was inactive: -0.0321%; in test [9] it was inactive: -0.144%. For the same compound, in test [11], the caspase-3/7 activation is inactive: 0.273%. Further, the Potency in [17] is active: 39.7 µM.
